Legend:
[1] = system: Nalp3/Asc/caspase-1-deficient C57BL/6 macrophages; experiment: Cell death (PI) and Western blot in inflammasome-deficient macrophages
[2] = system: C57BL/6 macrophages from different cathepsin knockout mice; experiment: Cell death and protein degradation in cathepsin-deficient macrophages

SMILES	Impact of Nlrp3 or Asc-deficiency on the inducer-mediated drop in pro-caspase-1 and IL-1β levels ([1]; LPS-primed deficient vs wild-type macrophages)	Impact of Nlrp3 or Asc-deficiency on inducer-mediated cell death ([1]; PI assay)	Impact of cathepsin B, L and S deficiency on inducer-mediated protein degradation and cell death ([2]; cathepsin B, L and S-deficient macrophages)	Impact of cathepsin C deficiency on inducer-mediated protein degradation and cell death ([2]; cathepsin C-deficient macrophages)	Impact of Nlrp3, Asc, and caspase-1-deficiency on inducer-mediated cell death and IL-1β processing ([1]; LPS-primed macrophages, nigericin 2 hours)	Impact of Nlrp3, Asc, and caspase-1-deficiency on the drop in pro-IL18 ([1]; nigericin-treated macrophages)
COC(=O)[C@H](CC(C)C)NC(=O)[C@@H](N)CC(C)C [LLOMe, Leu-Leu-OMe]	no impact	failed to prevent	no impact	prevented		
CO[C@@H]1C[C@@H](C[C@H]2CC[C@H](C)[C@H]([C@@H](C)C(=O)O)O2)O[C@]2(O[C@](C)([C@H]3CC[C@@](C)([C@@H]4O[C@@H]([C@H]5O[C@@](O)(CO)[C@H](C)C[C@@H]5C)C[C@@H]4C)O3)C[C@H]2C)[C@@H]1C [nigericin, Nigericin]					prevented	prevented the drop in pro-IL18

Source: patent US20140037685A1 (priority 2012, published 2014)
